Results from PubChem BioAssay AID652010 (The Scripps Research Institute Molecular Screening Center, 2013).
Only a part is listed here, and it is no random draw. Calls of active or inactive are those of the source.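 How the source made its calls: active means inhibition above the mean over all tested compounds plus 3 SD (cut at about 3.6% in these data); inactive means the rest.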

Experiment: relief of DAX-1 repression of SF-1 activity – cell-based, luminescence, SF-1 (NR5A1), full-length DAX-1, primary screen (AID 652010);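 further: 0% = DAX-1 cells with DMSO and 100% = cells lacking DAX-1 with DMSO; higher inhibition means more luminescence from relief of DAX-1 repression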
Conditions: HEK293T StAR-luciferase reporter, SF-1/DAX-1 repression relief; at 6.8 µM; active compounds read high
With `CCC(=O)N(c1ccccc1)C1(COC)CCN(CCc2cccs2)CC1` the inhibition was inactive: 1.98%.
For `CCC(=O)N(c1ccccc1)C1(COC)CCN(CCn2nnn(CC)c2=O)CC1`, the inhibition was inactive: -0.11%.
